The record followed here is ChEMBL document CHEMBL4007459, “Design of Potent mRNA Decapping Scavenger Enzyme (DcpS) Inhibitors with Improved Physicochemical Properties To Investigate the Mechanism of Therapeutic Benefit in Spinal Muscular Atrophy (SMA)” (J Med Chem, 2017).

Molecules are shown by their SMILES.

The nature of series [1]: Efflux ratio of permeability from basolateral to apical over apical to basolateral side of MDCK cells expressing MDR1. Type of series: ADME, cell-based, Canis lupus familiaris. The conditions noted are these: dog.
Series [2] in a line: Ratio of fraction unbound in FVB/N mouse plasma to fraction unbound in FVB/N mouse brain. Type of series: ADME.

With `Nc1nc(N)c2c(OCC3CCN(Cc4c(Cl)cccc4Cl)CC3)cccc2n1`, the Ratio in series [1] is on record as over 2.5.

As to `N#Cc1cc(F)cc(OCc2cccc3nc(N)nc(N)c23)c1`, the results for the Ratio in series [2] and in series [1] were 2.5 and 2.3, respectively.

As for `Cc1ncccc1OCc1cccc2nc(N)nc(N)c12`, the Ratio in series [1] came out at 2.1.
